Measured values taken from PubChem BioAssay (NCI).
Where “and” joins values, the source holds several entries; their conditions need not be identical. Equal values may be shown once.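 Values below derive from 48-hour exposures of cells grown in 96-well plates, with endpoints linearly interpolated between the two concentrations bracketing the appropriate inhibition level. At the GI50, growth is halved. The concentration for full growth arrest is given as TGI.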

Columns and labels:
Test in all cases: NCI tumour cell line growth inhibition, 48 h
SK-MEL-2 melanoma = system: SK-MEL-2 melanoma
PC-3 prostate = system: PC-3 prostate
COLO 205 colon = system: COLO 205 colon
OVCAR-3 ovarian = system: OVCAR-3 ovarian
SNB-19 CNS = system: SNB-19 CNS
OVCAR-8 ovarian = system: OVCAR-8 ovarian
NCI/ADR-RES ovarian = system: NCI/ADR-RES ovarian
IGROV1 ovarian = system: IGROV1 ovarian
HOP-62 NSCLC = system: HOP-62 NSCLC
M14 melanoma = system: M14 melanoma
MOLT-4 leukemia = system: MOLT-4 leukemia
HOP-92 NSCLC = system: HOP-92 NSCLC
NCI-H226 lung = system: NCI-H226 lung
OVCAR-4 ovarian = system: OVCAR-4 ovarian
NCI-H322M lung = system: NCI-H322M lung
LOX IMVI melanoma = system: LOX IMVI melanoma
MALME-3M melanoma = system: MALME-3M melanoma
HCT-15 colon = system: HCT-15 colon
EKVX NSCLC = system: EKVX NSCLC
TK-10 renal = system: TK-10 renal
NCI-H23 lung = system: NCI-H23 lung
NCI-H460 lung = system: NCI-H460 lung
SN12C renal = system: SN12C renal
SF-539 CNS = system: SF-539 CNS
T-47D breast = system: T-47D breast
SNB-75 CNS = system: SNB-75 CNS
DU-145 prostate = system: DU-145 prostate
CCRF-CEM leukemia = system: CCRF-CEM leukemia
CAKI-1 renal = system: CAKI-1 renal
MDA-N = system: MDA-N
SK-MEL-28 melanoma = system: SK-MEL-28 melanoma
BT-549 breast = system: BT-549 breast
A498 renal = system: A498 renal
RXF 393 renal = system: RXF 393 renal
SF-295 CNS = system: SF-295 CNS
786-0 renal = system: 786-0 renal
HS 578T breast = system: HS 578T breast
K-562 leukemia = system: K-562 leukemia
HT29 colon = system: HT29 colon
HCC-2998 colon = system: HCC-2998 colon
NCI-H522 lung = system: NCI-H522 lung
SR leukemia = system: SR leukemia
A549 NSCLC = system: A549 NSCLC
OVCAR-5 ovarian = system: OVCAR-5 ovarian
HL-60(TB) leukemia = system: HL-60(TB) leukemia
UACC-62 melanoma = system: UACC-62 melanoma
SW-620 colon = system: SW-620 colon
MDA-MB-231 breast = system: MDA-MB-231 breast
ACHN renal = system: ACHN renal
KM12 colon = system: KM12 colon
HCT-116 colon = system: HCT-116 colon
SF-268 CNS = system: SF-268 CNS
U251 CNS = system: U251 CNS
SK-MEL-5 melanoma = system: SK-MEL-5 melanoma
UO-31 renal = system: UO-31 renal
MDA-MB-435 = system: MDA-MB-435
MCF7 breast = system: MCF7 breast
UACC-257 melanoma = system: UACC-257 melanoma
RPMI-8226 leukemia = system: RPMI-8226 leukemia

Structure (SMILES): CC(=O)OC[C@]12C[C@H](OC(=O)CC(C)C)C(C)=C[C@H]1OC1[C@H](O)[C@@H](OC(C)=O)[C@@]2(C)[C@@]12CO2
- GI50 (SK-MEL-2 melanoma): 12.3 nM
- TGI (SK-MEL-2 melanoma): 51.7 nM
- GI50 (PC-3 prostate): 14.6 nM
- TGI (PC-3 prostate): 59.6 nM
- GI50 (COLO 205 colon): 7.2 nM
- GI50 (OVCAR-3 ovarian): 4.91 nM
- TGI (OVCAR-3 ovarian): 147 nM
- GI50 (SNB-19 CNS): 4.11 nM
- TGI (SNB-19 CNS): 104 nM
- GI50 (OVCAR-8 ovarian): 12.6 nM
- GI50 (NCI/ADR-RES ovarian): 26.5 nM
- TGI (NCI/ADR-RES ovarian): 199 nM and 784 nM
- GI50 (IGROV1 ovarian): 5.22 nM
- GI50 (HOP-62 NSCLC): 9.99 nM
- TGI (HOP-62 NSCLC): 129 nM and 28.3 nM
- GI50 (M14 melanoma): 4.66 nM
- TGI (M14 melanoma): 17.8 nM
- TGI (MOLT-4 leukemia): 129 nM
- GI50 (HOP-92 NSCLC): 18.2 nM
- TGI (HOP-92 NSCLC): 55.6 nM
- GI50 (NCI-H226 lung): 6.71 nM
- TGI (NCI-H226 lung): 32.4 nM
- GI50 (OVCAR-4 ovarian): 3.54 nM
- TGI (OVCAR-4 ovarian): 15.7 nM
- GI50 (NCI-H322M lung): 28.9 nM
- TGI (NCI-H322M lung): 167 nM and 24.2 nM
- GI50 (LOX IMVI melanoma): 3.41 nM
- TGI (LOX IMVI melanoma): 9.43 nM
- GI50 (MALME-3M melanoma): 4.09 nM
- TGI (MALME-3M melanoma): 36.1 nM
- GI50 (HCT-15 colon): 3 nM
- TGI (HCT-15 colon): 9.12 nM
- GI50 (EKVX NSCLC): 15.2 nM
- TGI (EKVX NSCLC): 44.2 nM and 275 nM
- GI50 (TK-10 renal): 14.9 nM
- TGI (TK-10 renal): 66.9 nM
- GI50 (NCI-H23 lung): 3.08 nM
- TGI (NCI-H23 lung): 18.3 nM
- GI50 (NCI-H460 lung): 3.27 nM
- TGI (NCI-H460 lung): 11.5 nM
- GI50 (SN12C renal): 24.5 nM
- TGI (SN12C renal): 159 nM
- GI50 (SF-539 CNS): 3.31 nM
- TGI (SF-539 CNS): 8.7 nM
- GI50 (T-47D breast): 6.11 nM
- TGI (T-47D breast): 36.7 nM
- GI50 (SNB-75 CNS): 35.4 nM
- GI50 (DU-145 prostate): 33.1 nM
- GI50 (CCRF-CEM leukemia): 3.3 nM
- TGI (CCRF-CEM leukemia): 71.7 nM
- GI50 (CAKI-1 renal): 26.9 nM
- TGI (CAKI-1 renal): 98.4 nM
- GI50 (MDA-N): 9.52 nM
- TGI (MDA-N): 40.8 nM
- GI50 (SK-MEL-28 melanoma): 4.99 nM
- TGI (SK-MEL-28 melanoma): 43.5 nM
- GI50 (BT-549 breast): 20.8 nM
- TGI (BT-549 breast): 61.2 nM
- GI50 (A498 renal): 5.29 nM
- TGI (A498 renal): 28.6 nM
- GI50 (RXF 393 renal): 14 nM
- TGI (RXF 393 renal): 51.3 nM
- GI50 (SF-295 CNS): 14.6 nM
- TGI (SF-295 CNS): 46.3 nM
- GI50 (786-0 renal): 19.1 nM
- TGI (786-0 renal): 56.8 nM and 15.8 nM
- GI50 (HS 578T breast): 15.1 nM
- GI50 (K-562 leukemia): 3.49 nM
- TGI (K-562 leukemia): 1280 nM
- GI50 (HT29 colon): 3.56 nM
- TGI (HT29 colon): 15 nM
- GI50 (HCC-2998 colon): 2.13 nM
- TGI (HCC-2998 colon): 5.45 nM
- GI50 (NCI-H522 lung): 3.25 nM
- TGI (NCI-H522 lung): 15 nM
- GI50 (SR leukemia): 3.99 nM
- TGI (SR leukemia): > 100000 nM
- GI50 (A549 NSCLC): 4.72 nM
- TGI (A549 NSCLC): 30.7 nM
- GI50 (OVCAR-5 ovarian): 41.8 nM
- TGI (OVCAR-5 ovarian): 527 nM
- GI50 (HL-60(TB) leukemia): 3.84 nM
- TGI (HL-60(TB) leukemia): > 100000 nM
- GI50 (UACC-62 melanoma): 10.8 nM
- TGI (UACC-62 melanoma): 42.1 nM
- TGI (SW-620 colon): 13200 nM
- GI50 (MDA-MB-231 breast): 27 nM
- GI50 (ACHN renal): 4.45 nM
- TGI (ACHN renal): 23 nM and 12.7 nM
- GI50 (KM12 colon): 9.83 nM
- GI50 (HCT-116 colon): 3.21 nM
- TGI (HCT-116 colon): 12.9 nM
- GI50 (SF-268 CNS): 15.1 nM
- TGI (SF-268 CNS): 68.3 nM
- GI50 (U251 CNS): 3.13 nM
- GI50 (SK-MEL-5 melanoma): 2.74 nM
- TGI (SK-MEL-5 melanoma): 7.17 nM
- GI50 (UO-31 renal): 19.5 nM and 13.1 nM
- TGI (UO-31 renal): 158 nM and 1190 nM
- GI50 (MDA-MB-435): 5.57 nM
- TGI (MDA-MB-435): 27.5 nM
- GI50 (MCF7 breast): 3.22 nM
- TGI (MCF7 breast): > 100000 nM
- GI50 (UACC-257 melanoma): 11.3 nM
- TGI (UACC-257 melanoma): 41.3 nM
- GI50 (RPMI-8226 leukemia): 4.68 nM
- TGI (RPMI-8226 leukemia): > 100000 nM
